In ChEMBL document CHEMBL4425129, “Exploring Basic Tail Modifications of Coumarin-Based Dual Acetylcholinesterase-Monoamine Oxidase B Inhibitors: Identification of Water-Soluble, Brain-Permeant Neuroprotective Multitarget Agents” (J Med Chem, 2016):

Assay: Efflux ratio of apparent permeability across basolateral to apical side over apical to basolateral side in MDCK2-MDR1 cells at 75 uM by UV-visible spectroscopic method
Type: ADME, cell-based, Canis lupus familiaris
Conditions: dog, mdck-mdr1, 75 µM

## CN1C(=O)CN=C(c2ccccc2)c2cc(Cl)ccc21 [DIAZEPAM]
  Ratio: 0.98
